# Measurements: patent US20250313563A1, “GLYCOGEN SYNTHASE KINASE 3 INHIBITORS AND USES THEREOF” (The Broad Institute, Inc., priority 2022, published 2025)
# Sequences of proteins named here, by UniProt entry; tags and fusion partners are left off.
# UniProt P49840, whole entry: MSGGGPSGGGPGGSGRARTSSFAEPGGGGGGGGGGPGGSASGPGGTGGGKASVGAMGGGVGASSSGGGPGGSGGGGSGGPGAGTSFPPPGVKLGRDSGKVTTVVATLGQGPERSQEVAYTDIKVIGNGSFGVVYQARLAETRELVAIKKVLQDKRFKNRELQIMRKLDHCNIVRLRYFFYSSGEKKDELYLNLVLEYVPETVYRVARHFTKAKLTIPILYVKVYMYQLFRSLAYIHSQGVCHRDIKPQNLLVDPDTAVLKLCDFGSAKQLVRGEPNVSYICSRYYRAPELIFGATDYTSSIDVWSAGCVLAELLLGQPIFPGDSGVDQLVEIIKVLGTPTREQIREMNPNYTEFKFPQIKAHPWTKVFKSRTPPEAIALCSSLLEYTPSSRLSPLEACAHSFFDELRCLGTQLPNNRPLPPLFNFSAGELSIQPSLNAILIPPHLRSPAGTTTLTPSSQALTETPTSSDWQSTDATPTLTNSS
# UniProt P49841, whole entry: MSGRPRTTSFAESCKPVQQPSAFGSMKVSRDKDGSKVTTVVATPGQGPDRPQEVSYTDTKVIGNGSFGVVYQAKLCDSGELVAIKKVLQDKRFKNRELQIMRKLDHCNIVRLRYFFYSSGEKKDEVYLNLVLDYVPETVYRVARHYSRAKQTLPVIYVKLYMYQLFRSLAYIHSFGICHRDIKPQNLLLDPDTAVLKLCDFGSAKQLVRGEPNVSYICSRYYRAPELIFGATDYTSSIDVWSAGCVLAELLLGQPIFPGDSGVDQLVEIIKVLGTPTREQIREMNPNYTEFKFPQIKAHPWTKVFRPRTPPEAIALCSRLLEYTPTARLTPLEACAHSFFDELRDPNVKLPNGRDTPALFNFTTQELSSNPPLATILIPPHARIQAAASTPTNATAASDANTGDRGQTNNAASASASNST
# Read-outs that look alike come from different tables or passages of the source.
# What was measured:
# [1] = target: GSK3α (GST-full length GSK3α) (Homo sapiens (Human), UniProt P49840); assay: GSK3α TR-FRET kinase assay; format: biochemical
# [2] = target: GSK3b (GST-full length GSK3b) (Homo sapiens (Human), UniProt P49841); assay: GSK3b TR-FRET kinase assay; format: biochemical
# [3] = read-out: GSK3-A TR-FRET BIOCHEMICAL (TR-FRET), IC50, 1 nM GSK3α, 4 μM ATP, 30 minute preincubation (Table 16)
# [4] = read-out: GSK3-B TR-FRET BIOCHEMICAL (TR-FRET), IC50, 1 nM GSK3b, 2 μM ATP, 30 minute preincubation (Table 16)
# [5] = read-out: GSK3-A TR-FRET BIOCHEMICAL (TR-FRET);, 1 nM GSK3α, 4 μM ATP, 30 minute preincubation, Table 16
# [6] = read-out: GSK3-B TR-FRET BIOCHEMICAL (TR-FRET);, 1 nM GSK3b, 2 μM ATP, 30 minute preincubation, Table 16
# [7] = read-out: GSK3-A TR-FRET BIOCHEMICAL (TR-FRET), IC50, 1 nM GSK3α, 4 μM ATP, 30 minute preincubation
# [8] = read-out: GSK3-B TR-FRET BIOCHEMICAL (TR-FRET), IC50, 1 nM GSK3b, 2 μM ATP, 30 minute preincubation
# [9] = read-out: GSK3-A (TR-FRET 1 mM ATP), GMean, IC50, 1 mM ATP, geometric mean
# [10] = read-out: GSK3-B (TR-FRET 1 mM ATP), GMean, IC50, 1 mM ATP, geometric mean
# [11] = read-out: GSK3-A TR-FRET BIOCHEMICAL (TR-FRET), GMean, IC50, 1 nM GSK3α, 4 μM ATP, 30 minute preincubation, geometric mean
# [12] = read-out: GSK3-B TR-FRET BIOCHEMICAL (TR-FRET), GMean, IC50, 1 nM GSK3b, 2 μM ATP, 30 minute preincubation, geometric mean
compound,measurement,setting,value
CC[C@]1(c2cccc(-c3ccnc(C)c3)c2)C2=C(CC(C)(C)C2=O)Nc2n[nH]cc21,IC50,[1]; [3],1000 to 5000 nM
same,IC50,[2]; [4],> 5000 nM
CC[C@]1(c2cccc(N(C)c3cccc(F)n3)c2)C2=C(CC(C)(C)CC2=O)Nc2n[nH]cc21,IC50,[1]; [3],> 5000 nM
same,IC50,[2]; [4],> 5000 nM
CCc1cccc(C2(CC)C3=C(CC(C)(C)CC3=O)Nc3n[nH]cc32)c1 (stereo not drawn) [Compound 949391],IC50,[1]; [5],< 100 nM
same,IC50,[2]; [6],100 to 1000 nM
CC1(C)CC(=O)C2=C(C1)Nc1n[nH]cc1[C@]21C[C@@]2(CCN(CC(F)(F)F)C2)C1 (relative stereo),IC50,[1]; [7],100 to 1000 nM
same,IC50,[2]; [8],100 to 1000 nM
CC[C@@]1(c2cccc(-c3ccnc(C)c3)c2)C2=C(CC(C)(C)NC2=O)Nc2n[nH]c(C(F)F)c21,IC50,[1]; [9],100 to 1000 nM
same,IC50,[1]; [3],< 100 nM
same,IC50,[2]; [10],> 5000 nM
same,IC50,[2]; [4],< 100 nM
CC[C@@]1(c2cccc(-c3ccncc3)c2)C2=C(C[C@H](C)CC2=O)Nc2n[nH]cc21,IC50,[1]; [11],< 100 nM
same,IC50,[2]; [12],< 100 nM
CC[C@@]1(c2cccc(-c3cnc4n3CCCC4)c2)C2=C(CC(C)(C)CC2=O)Nc2n[nH]cc21,IC50,[1]; [5],1000 to 5000 nM
same,IC50,[2]; [6],> 5000 nM
CC[C@@]1(c2cccc(-c3ccnc(C)c3)c2)C2=C(C[C@@]3(CCOC3)NC2=O)Nc2n[nH]cc21,IC50,[1]; [11],1000 to 5000 nM
same,IC50,[2]; [12],> 5000 nM
CC[C@]1(c2cccc(-c3ccnc(N(C)C)c3)c2)C2=C(CC(C)(C)CC2=O)Nc2n[nH]c(C)c21,IC50,[1]; [3],100 to 1000 nM
same,IC50,[2]; [4],1000 to 5000 nM
CC[C@]1(c2cccc(C(F)(F)F)c2)C2=C(CCN(c3ccccn3)C2=O)Nc2n[nH]cc21,IC50,[1]; [3],100 to 1000 nM
same,IC50,[2]; [4],> 5000 nM
CCC1(c2ccccc2)C(C(C)=O)=C(C)Nc2n[nH]cc21 (stereo not drawn),IC50,[1]; [7],> 5000 nM
same,IC50,[2]; [8],> 5000 nM
CC[C@]1(c2cccc(-c3cnn4cc(F)cc(F)c34)c2)C2=C(CC(C)(C)NC2=O)Nc2n[nH]cc21,IC50,[1]; [3],< 100 nM
same,IC50,[2]; [4],100 to 1000 nM
CC[C@]1(c2cccc(-c3ccnc(C(F)F)c3)c2)C2=C(CC(C)(C)NC2=O)Nc2n[nH]cc21,IC50,[1]; [3],< 100 nM
same,IC50,[2]; [4],100 to 1000 nM
CCC1(c2cccc(C(F)(F)F)c2)C2=C(CCN(c3cscn3)C2=O)Nc2n[nH]cc21 (stereo not drawn),IC50,[1]; [3],< 100 nM
same,IC50,[2]; [4],100 to 1000 nM
CC[C@@]1(c2cccc(N(C)c3ccc(F)nc3)c2)C2=C(CC(C)(C)CC2=O)Nc2n[nH]cc21,IC50,[1]; [3],< 100 nM
same,IC50,[2]; [4],100 to 1000 nM
CC1(C)CC(=O)C2=C(C1)Nc1n[nH]c(CCC(F)(F)F)c1C2(C)c1ccccc1 (stereo not drawn) [Compound 856948],IC50,[1]; [11],100 to 1000 nM
same,IC50,[2]; [12],100 to 1000 nM
CC[C@@]1(c2cccc(-c3cnn(CCOC)c3)c2)C2=C(CC(C)(C)CC2=O)Nc2n[nH]c(C)c21,IC50,[1]; [3],< 100 nM
same,IC50,[2]; [4],< 100 nM
CCC1(c2cccc(-c3cnn(C)n3)c2)C2=C(CC(C)(C)CC2=O)Nc2n[nH]cc21 (stereo not drawn),IC50,[1]; [5],< 100 nM
same,IC50,[2]; [6],1000 to 5000 nM
CCC1(c2cccc(N(C)C(=O)C3CCCCC3)c2)C2=C(CC(C)(C)CC2=O)Nc2n[nH]cc21 (stereo not drawn),IC50,[1]; [3],< 100 nM
same,IC50,[2]; [4],100 to 1000 nM
CC[C@@]1(c2cccc(N(C)c3cccc(C)n3)c2)C2=C(CC(C)(C)CC2=O)Nc2n[nH]cc21,IC50,[1]; [3],> 5000 nM
same,IC50,[2]; [4],> 5000 nM
CCC1(c2cccc(-c3cnn4c3CCCC4)c2)C2=C(CC(C)(C)NC2=O)Nc2n[nH]c(C)c21 (stereo not drawn),IC50,[1]; [7],< 100 nM
same,IC50,[2]; [8],100 to 1000 nM
CC[C@]1(c2cccc(-c3c(C)nnn3C)c2)C2=C(CC(C)(C)CC2=O)Nc2n[nH]cc21,IC50,[1]; [5],100 to 1000 nM
same,IC50,[2]; [6],1000 to 5000 nM
CC[C@]1(c2cccc(-c3c(C)c(C)nn3C)c2)C2=C(CC(C)(C)NC2=O)Nc2n[nH]cc21,IC50,[1]; [3],< 100 nM
same,IC50,[2]; [4],100 to 1000 nM
CCC1(c2cccc(C(F)F)c2)C2=C(CC(C)(C)NC2=O)Nc2n[nH]c(C)c21 (stereo not drawn),IC50,[1]; [11],< 100 nM
same,IC50,[2]; [12],< 100 nM
"CC[C@@]1(c2cccc(N3CCCCC3)c2)C2=C(CC(C)(C)CC2=O)Nc2n[nH]c(C)c21 (single isomer, unassigned)",IC50,[1]; [9],100 to 1000 nM
same,IC50,[1]; [3],< 100 nM
same,IC50,[2]; [10],100 to 1000 nM
same,IC50,[2]; [4],< 100 nM
CC1(C)CC2=C(C(=O)N1)[C@@](C)(c1cccc(S(C)(=O)=O)c1)c1c(n[nH]c1C1CC1)N2,IC50,[1]; [9],< 100 nM
same,IC50,[2]; [10],100 to 1000 nM
CC[C@]1(c2cccc(N3CCOCC3)c2)C2=C(CC(C)(C)CC2=O)Nc2n[nH]c(C(F)(F)F)c21,IC50,[1]; [9],< 100 nM
same,IC50,[1]; [11],< 100 nM
same,IC50,[2]; [10],< 100 nM
same,IC50,[2]; [12],< 100 nM
CC[C@]1(c2cccc(-c3ccncc3C)c2)C2=C(CC3(CCCC3)NC2=O)Nc2n[nH]cc21,IC50,[1]; [9],< 100 nM
same,IC50,[1]; [11],< 100 nM
same,IC50,[2]; [10],100 to 1000 nM
same,IC50,[2]; [12],< 100 nM
CC[C@]1(c2cccc(-c3cc(C)ncc3OC)c2)C2=C(CC(C)(C)NC2=O)Nc2n[nH]cc21,IC50,[1]; [3],1000 to 5000 nM
same,IC50,[2]; [4],> 5000 nM
CCn1nccc1-c1cccc([C@@]2(CC)C3=C(CC(C)(C)CC3=O)Nc3n[nH]cc32)c1,IC50,[1]; [9],< 100 nM
same,IC50,[1]; [5],< 100 nM
same,IC50,[2]; [10],100 to 1000 nM
same,IC50,[2]; [6],< 100 nM
CC[C@@]1(c2cccc(S(C)(=O)=O)c2)C2=C(CC(C)(C)NC2=O)Nc2n[nH]c(C)c21,IC50,[1]; [11],1000 to 5000 nM
same,IC50,[2]; [12],> 5000 nM
CCC1(c2cccc(COC)c2)C2=C(CC(C)(C)CC2=O)Nc2n[nH]cc21 (stereo not drawn),IC50,[1]; [11],< 100 nM
same,IC50,[2]; [12],100 to 1000 nM
CC1(C)CC(=O)C2=C(C1)Nc1n[nH]c(CCC(F)(F)F)c1[C@]21CCc2c(F)cccc21,IC50,[1]; [11],100 to 1000 nM
same,IC50,[2]; [12],100 to 1000 nM
CC1(C)CC(=O)C2=C(C1)Nc1n[nH]cc1[C@@]21COC2(CN(C(=O)C3CCCC3)C2)C1,IC50,[1]; [7],< 100 nM
same,IC50,[2]; [8],< 100 nM
CC[C@]1(c2cccc(-c3ccnn3C)c2)C2=C(C[C@]3(CCCOC3)NC2=O)Nc2n[nH]cc21,IC50,[1]; [9],100 to 1000 nM
same,IC50,[1]; [11],< 100 nM
same,IC50,[2]; [10],1000 to 5000 nM
same,IC50,[2]; [12],< 100 nM
CC[C@]1(c2cccc(-c3ccnc(C)c3)c2)C2=C(CC(C)(C)CC2=O)Nc2n[nH]c(C(F)(F)F)c21,IC50,[1]; [9],< 100 nM
same,IC50,[1]; [3],< 100 nM
same,IC50,[2]; [10],100 to 1000 nM
same,IC50,[2]; [4],< 100 nM
CC[C@@]1(c2cccc(N(C)c3ncccn3)c2)C2=C(CC(C)(C)NC2=O)Nc2n[nH]c(C(F)F)c21,IC50,[1]; [9],< 100 nM
same,IC50,[1]; [3],< 100 nM
same,IC50,[2]; [10],100 to 1000 nM
same,IC50,[2]; [4],< 100 nM
CC[C@]1(c2cccc(-c3ccncc3)c2)C2=C(CC(C)(C)CC2=O)Nc2n[nH]c(C(F)(F)F)c21,IC50,[1]; [9],< 100 nM
same,IC50,[1]; [3],< 100 nM
same,IC50,[2]; [10],< 100 nM
same,IC50,[2]; [4],< 100 nM
CC[C@@]1(c2cccc(-c3cc(C)ncc3C)c2)C2=C(CC(C)(C)NC2=O)Nc2n[nH]c(C(F)(F)F)c21,IC50,[1]; [5],100 to 1000 nM
same,IC50,[2]; [6],100 to 1000 nM
CC[C@]1(c2cccc(-c3ccncc3C)c2)C2=C(C[C@]3(CCOC3)NC2=O)Nc2n[nH]cc21,IC50,[1]; [11],< 100 nM
same,IC50,[2]; [12],< 100 nM
CCC1(c2cccc(N(C)c3cc(C)cc(C)n3)c2)C2=C(CC(C)(C)CC2=O)Nc2n[nH]cc21 (stereo not drawn),IC50,[1]; [5],< 100 nM
same,IC50,[2]; [6],100 to 1000 nM
CC1(C)CC(=O)C2=C(C1)Nc1n[nH]c(CCC(F)(F)F)c1C21CCc2c(F)cccc21 (stereo not drawn) [Compound 874323],IC50,[1]; [11],100 to 1000 nM
same,IC50,[2]; [12],100 to 1000 nM
CC[C@]1(c2cccc(C(F)(F)F)c2)C2=C(CC(C)(C)CC2=O)Nc2n[nH]cc21,IC50,[1]; [11],100 to 1000 nM
CC[C@]1(c2cccc(C(F)(F)F)c2)C2=C(CC(C)(C)CC2=O)Nc2n[nH]c(C)c21,IC50,[1]; [11],100 to 1000 nM
CCC1(c2cccc(N3CCOCC3)c2)C2=C(CC(C)(C)CC2=O)Nc2n[nH]cc21 (stereo not drawn) [Compound 810363],IC50,[1]; [11],100 to 1000 nM
CC[C@@]1(c2cccc(C)c2)C2=C(CC3(CCCC3)CC2=O)Nc2n[nH]cc21,IC50,[2]; [12],> 5000 nM
CC[C@]1(c2cccc(C(F)(F)F)c2)C2=C(CC3(CCCC3)CC2=O)Nc2n[nH]cc21,IC50,[1]; [11],100 to 1000 nM
CC(C)(C)Cc1[nH]nc2c1[C@@](C)(c1ccccc1)C1=C(CC(C)(C)NC1=O)N2,IC50,[2]; [10],> 5000 nM
